# Assay results: PubChem BioAssay AID925 (National Center for Advancing Translational Sciences (NCATS), 2007)
# Only a part is listed here, and it is no random draw. Calls of active or inactive are those of the source. Calls come from the whole dose curve; as a rule, active = well fitted activation curve with a large enough effect; inconclusive = small, poorly fitted or top-dose-only effect; inactive = flat fitted curve, though single readings scatter.
# Test: qHTS Assay for Modulators of Hemoglobin Beta Chain Splicing; note: 0% is about no effect
# Conditions: HBB splicing reporter cell assay, EGFP reporter with mutant IVS2-654 intron, normalised to 500 nM splice-correcting PNA; at 46.1 µM (top of the series)
# Excerpt: NIH Chemical Genomics Center [NCGC]
# NIH Molecular Libraries Screening Centers Network [MLSCN]
# PI Name: Dr. Ryszard Kole
# Modulation of Alternative Splicing as Therapy
# Abnormal splicing is associated with a number of diseases, including cancer and genetic diseases such as cystic fibrosis, muscular dystrophy and beta-thalassemia. Alteration of disease associated splicing patterns provides a promising target for treatment. […] Mutations in the second intron of the beta-globin gene at positions are clinically relevant and cause mis-splicing which results in an out of frame gene product.
# EGFP-654 and 705 HeLa Cells as screen system.
# HeLa cell lines were stably transfected with a construct in which the EGFP (enhanced green fluorescent protein) cDNA was interrupted by the second intron of the beta-globin gene (IVS2-654). The ISV2 intron contains mutations which cause mis-splicing of EGFP and premature termination of EGFP which results in a nonfluorescent protein product. […] Expression of the transgene was driven by the CMV promoter. […]
# High Throughput Screening. […] Plates were read in the Acumen Explorer (TTP Labtech) using 488 nm laser excitation and 500-520 nm emission PMT filter in a 1 x […] capture mode. Fluorescnet Fluorescent objects ranging in size from […] were measured and the total peak GFP intensity for each well was used for data analysis. […]
row,SMILES,activation
1,CN(CCCl)CCCl,inactive: -0.112%
2,O=[N+]([O-])C(Cl)(Cl)Cl,inactive: -0.127%
